Data as given in ChEMBL document CHEMBL4350967, “The Trifluoromethyl Group as a Bioisosteric Replacement of the Aliphatic Nitro Group in CB1 Receptor Positive Allosteric Modulators” (J Med Chem, 2019).

What was measured:
[1] = Half life in rat liver microsomes at 3 uM in presence of NADPH by LC-MS/MS analysis; assay type: ADME, Microsome
[2] = Half life in human liver microsomes at 3 uM in presence of NADPH by LC-MS/MS analysis; assay type: ADME, Microsome

| t1/2 [1] [min] | t1/2 [2] [min] | SMILES |
| --- | --- | --- |
| 40.7 | 85.2 | FC(F)(F)CC(c1ccccc1)c1c(-c2ccccc2)[nH]c2ccccc12 (racemic) |
| 24.8 | 267 | Cc1ccc2c(C(C(=O)C(F)(F)F)c3ccccc3)c(-c3ccccc3)[nH]c2c1 (racemic) |
| 54.3 | 157 | FC(F)(F)CC(c1cccs1)c1c(-c2ccccc2)[nH]c2cc(Cl)ccc12 (racemic) |
| 78 | 98.6 | FC(F)(F)CC(c1ccccc1)c1c(-c2ccccc2)[nH]c2cc(Cl)ccc12 (racemic) |
| 41.4 | 51.1 | O=C(C(c1ccccc1)c1c(-c2ccccc2)[nH]c2ccccc12)C(F)(F)F (racemic) |

More lines, now with the values behind:

| SMILES | t1/2 [1] [min] | t1/2 [2] [min] |
| --- | --- | --- |
| Cc1ccc2c(C(CC(F)(F)F)c3cccs3)c(-c3ccccc3)[nH]c2c1 (racemic) | 17.5 | 108 |
| N#CCC(c1ccccc1)c1c(-c2ccccc2)[nH]c2ccccc12 (racemic) | 14.5 | 42.7 |
| Cc1ccc2c(C(CC(F)(F)F)c3ccco3)c(-c3ccccc3)[nH]c2c1 (racemic) | 10.3 | 59.1 |
| Cc1ccc2c(C(CC#N)c3ccccc3)c(-c3ccccc3)[nH]c2c1 (racemic) | 18.7 | 45.7 |
| FC(F)(F)CC(c1ccco1)c1c(-c2ccccc2)[nH]c2cc(Cl)ccc12 (racemic) | 46.3 | 63.9 |
| Cc1ccc2c(C(c3ccccc3)C(C#N)C#N)c(-c3ccccc3)[nH]c2c1 (racemic) | 12.4 | 39.3 |
| Cc1ccc2c(C(CC3CC3)CC(F)(F)F)c(-c3ccccc3)[nH]c2c1 (racemic) | 19.8 | 74.4 |
| N#CC(C#N)C(c1ccccc1)c1c(-c2ccccc2)[nH]c2ccccc12 (racemic) | 14.8 | 26.2 |
| Cc1ccc2c(C(CC(F)(F)F)c3ccccc3)c(-c3ccccc3)[nH]c2c1 (racemic) | 28.2 | 87.2 |
